# Curated experimental data: water solubility values

Values as listed in the OPERA 2.9 repository of K. Mansouri.

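OPERA's authors assembled the values from existing databases and did not measure them anew. One number stands for a compound and property, with no spread given. Method, purity and exact conditions of the single measurements are not given. The measured form (salt, isomer or mixture) is not always the one drawn. Unmarked limits or estimates from the upstream databases cannot be ruled out.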

Water solubility is log10 of mol/L, nominally at 25 °C; higher is more soluble. "–" marks a cell with nothing listed here.

SMILES | name | log S (log10 mol/L)
Cc1cc(O)c(C(C)C)cc1C | 2-Isopropyl-4,5-dimethylphenol | -2.809
CCCCNC(=O)[C@@H](O)[C@@H](O)[C@H](O)[C@@H](O)C(=O)NCCCC | D-Glucaric acid bis-butylamide | -2.108
Cc1c(O)c(=O)ccn1C | Deferiprone | -0.888
CCCC(=O)OCC(O)CO (stereo not drawn) | Butanoic acid, 2,3-dihydroxypropyl ester | -1.33
CC(C=O)=Cc1ccccc1 | 2-Methylcinnamic aldehyde | -2.397
CCCC1CC(C)(OC(C)=O)CCO1 (stereo not drawn) | 2H-Pyran-4-ol, tetrahydro-4-methyl-2-propyl-, 4-acetate | -1.904
NC(=O)Nc1cccc(Br)c1 | 3-Bromophenylurea | -2.541
Nc1cc(S(=O)(=O)O)cc([N+](=O)[O-])c1O | 4-Hydroxy-5-nitrometanilic acid | -1.746
CCCCC[C@H](O)/C=C/[C@H]1[C@H](O)CC(=O)[C@@H]1C/C=C\CCCC(=O)O | Dinoprostone | -2.47
CC(=O)O[C@@H]1C[C@H](C)CC[C@H]1C(C)C (racemic) | – | -4.067
CCCCCCC(O)CCCCCCCCCCCO (stereo not drawn) | Octadecane-1,12-diol | -5.307
O=C1CCCC=CCCCCCCCCCC1 | 5-Cyclohexadecen-1-one | -5.317
CCCc1c2oc(C(=O)O)cc(=O)c2cc2c(=O)cc(C(=O)O)n(CC)c12 | Nedocromil | -3.908
CCCCCCCC(=O)NO | Octanamide, N-hydroxy- | -2.012
COC(=O)c1ccc(N(C)C)cc1 | Methyl 4-dimethylaminobenzoate | -3.3
Clc1cc(Cl)cc(Oc2ccc(Cl)c(Cl)c2Cl)c1 | 2,3,3',4,5'-Pentachlorodiphenylether | -7.86
COc1cc([N+](=O)[O-])ccc1N=NC(C(C)=O)C(=O)Nc1ccc(S(=O)(=O)NCCCN(C)C)cc1 (stereo not drawn) | – | -7.42
CC1=CC=C(C(C)C)CC1 | alpha-Terpinene | -4.36
CCCCCCCCCCCC(=O)OCCCCCCCCCC | Dodecanoic acid, decyl ester | -8.81
COc1cccc2nc3c4cccc5cccc(c(=O)n3c12)c54 | – | -6.678
CC1(C)CC(=O)C(CC2C(=O)CC(C)(C)CC2=O)C(=O)C1 | 2,2'-Methylenebis(5,5-dimethylcyclohexane-1,3-dione) | -1.591
CCOc1ccc(B(O)O)c(F)c1F | (4-Ethoxy-2,3-difluorophenyl)boronic acid | -3.144
O=C(Nc1cc(Cl)c(NC(=O)c2cc3ccccc3c(N=Nc3cc(Cl)ccc3Cl)c2O)cc1Cl)c1cc2ccccc2c(N=Nc2cc(Cl)ccc2Cl)c1O | – | -8.151
CCC=CC=CC=O | 2,4-Heptadienal | -1.593
CSc1nc2cc(Cl)c(Oc3cccc(Cl)c3Cl)cc2[nH]1 | Triclabendazole | -5.561
NC(=O)c1cc(=O)[nH]c(=O)[nH]1 | 2,6-dioxo-1,2,3,6-tetrahydropyrimidine-4-carboxamide | -2.492
CCC1CCC(c2ccc(-c3cc(F)c(C(F)(F)Oc4cc(F)c(F)c(F)c4)c(F)c3)cc2)OC1 (stereo not drawn) | – | -6.768
C[C@]12CC[C@@H]3C4=C(CC[C@H]3[C@@H]1CC[C@@]2(O)CC#N)CC(=O)CC4 | (17alpha)-17-Hydroxy-3-oxo-19-norpregn-5(10)-ene-21-nitrile | -3.36
CCCCCCCCCCCCCCCCCCCCCC[N+](C)(C)C.COS(=O)(=O)[O-] | Behentrimonium methosulfate | -4.836
COCc1ccc(-c2ccc(COC)cc2)cc1 | 4,4'-Bis(methoxymethyl)-1,1'-biphenyl | -4.002
COc1cc(OC)c(NC(=O)c2cc3ccccc3c(/N=N/c3cc(C(=O)Nc4ccc(C(N)=O)cc4)ccc3OC)c2O)cc1Cl | C.I. Pigment Red 187 | -7.866
O=C(O)CCCCO/N=C(/c1cccnc1)c1cccc(C(F)(F)F)c1 | Ridogrel | -4.64
CCc1ccc(-c2ccc(B(O)O)c(F)c2)cc1 | (4'-Ethyl-3-fluoro[1,1'-biphenyl]-4-yl)boronic acid | -4.009

Repeated from above, the 5 entries with the highest log S:

{"smiles": "Cc1c(O)c(=O)ccn1C", "name": "Deferiprone", "log S (log10 mol/L)": "-0.888"}
{"smiles": "CCCC(=O)OCC(O)CO", "stereo": "stereo not drawn", "name": "Butanoic acid, 2,3-dihydroxypropyl ester", "log S (log10 mol/L)": "-1.33"}
{"smiles": "CC1(C)CC(=O)C(CC2C(=O)CC(C)(C)CC2=O)C(=O)C1", "name": "2,2'-Methylenebis(5,5-dimethylcyclohexane-1,3-dione)", "log S (log10 mol/L)": "-1.591"}
{"smiles": "CCC=CC=CC=O", "name": "2,4-Heptadienal", "log S (log10 mol/L)": "-1.593"}
{"smiles": "Nc1cc(S(=O)(=O)O)cc([N+](=O)[O-])c1O", "name": "4-Hydroxy-5-nitrometanilic acid", "log S (log10 mol/L)": "-1.746"}